In test [1] the target is T1, D(2) dopamine receptor (Homo sapiens, UniProt P14416).
Test [2] concerns the target T1, D(2) dopamine receptor. The experiment in a line: Antagonist activity at C-terminal RLuc8-fused D2 long receptor (unknown origin) transfected in human HEK293T cells co-expressing N-terminal Venus-tagged beta-arrestin2 assessed as increase in beta-arrestin2 recruitment measured after 5 mins in presence of coelenterazine H by BRET assay. It counts as cell-based. Background: Recruitment of arrestin is a read-out of receptor activation apart from second messengers.

Protein sequences, listed by entry. Tags and fused reporters are not part of them.
UniProt P14416, whole entry: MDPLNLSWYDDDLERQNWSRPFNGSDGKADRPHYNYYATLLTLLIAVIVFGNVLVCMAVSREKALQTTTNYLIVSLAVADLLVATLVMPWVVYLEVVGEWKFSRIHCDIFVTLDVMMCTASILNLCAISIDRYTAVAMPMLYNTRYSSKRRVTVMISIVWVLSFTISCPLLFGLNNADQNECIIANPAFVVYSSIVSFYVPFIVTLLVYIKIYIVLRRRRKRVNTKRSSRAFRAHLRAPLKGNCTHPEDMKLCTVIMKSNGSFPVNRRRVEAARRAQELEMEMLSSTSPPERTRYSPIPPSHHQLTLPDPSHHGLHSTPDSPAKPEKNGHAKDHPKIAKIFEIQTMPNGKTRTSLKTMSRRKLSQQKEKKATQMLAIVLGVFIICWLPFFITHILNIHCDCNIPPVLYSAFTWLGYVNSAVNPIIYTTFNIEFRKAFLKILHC

In test [3] the target is T1, D(2) dopamine receptor. The test can be described thus: Antagonist activity at D2 long receptor (unknown origin) transfected in human HEK293T cells assessed as increase in cAMP accumulation incubated for 2 hrs by cAMP Glo-sensor assay. It counts as functional, cell-based.

The source made the active and inactive calls. No cut-off for these calls is given here.

Consider `COc1cccc(-c2cc3c(c(OC(C)=O)c2OC(C)=O)-c2cccc4c2[C@@H](C3)N(C)CC4)c1`, for which the pEC50 entry at D(2) dopamine receptor [1] is “inactive”.

`CCN1CCC[C@H]1CNC(=O)c1c(O)c(Cl)cc(Cl)c1OC` (racemic) [RACLOPRIDE]: the IC50 (in general, the concentration that gives 50% inhibition) at D(2) dopamine receptor [2] was 1.83 nM; on D(2) dopamine receptor [3] it was 104 nM.

(Values after ChEMBL document CHEMBL4342494 (ACS Med Chem Lett, 2020).)
